Results from patent publication US20080009019A1, “HIGH THROUGHPUT METHOD FOR SCREENING CANDIDATE COMPOUNDS FOR BIOLOGICAL ACTIVITY” (SmithKline Beecham Corporation, priority 2001, published 2008).

The chains behind the UniProt entries cited, without tags or fusion partners. Where a name states a change or a piece, a line headed by the entry shows the natural chain unless it says otherwise.
UniProt Q01726: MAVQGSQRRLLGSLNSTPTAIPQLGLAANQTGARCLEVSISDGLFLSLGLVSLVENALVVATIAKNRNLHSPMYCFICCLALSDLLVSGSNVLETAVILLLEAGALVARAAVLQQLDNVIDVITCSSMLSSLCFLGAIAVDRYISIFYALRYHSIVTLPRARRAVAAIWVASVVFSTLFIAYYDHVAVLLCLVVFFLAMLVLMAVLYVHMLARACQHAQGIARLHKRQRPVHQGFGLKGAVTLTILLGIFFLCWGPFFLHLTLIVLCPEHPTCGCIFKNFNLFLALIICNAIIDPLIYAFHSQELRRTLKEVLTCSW

Target: T1, melanocortin-1 receptor (MC1R) (Homo sapiens, UniProt Q01726)
T1 construct: expressed in transfected cells
Test: Agarose lawn reporter assay, CHO-6xCRE-luc+ cells expressing MC1 receptor
Type: cell-based

4-L-norleucine-7-D-phenylalanine-alpha melanocyte stimulating hormone [[NDP]-α-MSH]
effect of ultraviolet light exposure on the response to the peptide (UV 365 nm for 0 to 32 minutes before peptide, FIG. 9): did not significantly affect the response
concentration-response curve of luminescence activity (approximately 10 nl of 5×10^−4 M to 1.5×10^−6 M peptide solution on lawn by HDR pin tool, 4 hours at 37° C., FIGS. 5A-5B): concentration-response curve of luminescence activity was only observed when peptide was applied to the cell line expressing the appropriate receptor
maximal response value (z value minus background z value) (concentration curve from FIG. 10E (lawn exposed to UV 10 minutes), FIG. 11A): approximately 25
